Source: PubChem BioAssay (EPA / NIEHS)
The list shows a part of the results, in another mix than the full data. The source made the active and inactive calls. Rule for the calls: active = hit-call score of the fitted dose curve at least 0.9, where 1 is the maximum; inactive = score below 0.9.

assay: ATG_NF_kB_CIS: Attagene CIS-FACTORIAL HepG2 Assay for human Nuclear Factor Kappa B (NF-kB) (AID 2282991); conditions: HepG2 Attagene cis-factorial NF-kB reporter mRNA; actives raise or lower the signal
Method: ATG_CIS is a cell-based, multiplexed-readout assay that uses HepG2, a human liver cell line, with measurements taken at 24 hours after chemical dosing in a 24-well plate.ATG_NF_kB_CIS is one of 52 assay component(s) measured or calculated from the ATG_CIS assay. It is designed to make measurements of mRNA induction, a form of inducible reporter, as detected with fluorescence intensity signals by Reverse transcription polymerase chain reaction (RT-PCR) and Capillary electrophoresis technology.Data from the assay component ATG_NF_kB_CIS was analyzed into 1 assay endpoint. This assay endpoint, ATG_NF_kB_CIS, was analyzed with bidirectional fitting relative to DMSO as the negative control and baseline of activity. Using a type of inducible reporter, measures of mRNA for gain or loss-of-signal activity can be used to understand the reporter gene at the transcription factor-level as they relate to the gene NFKB1. Furthermore, this assay endpoint can be referred to as a primary readout, because this assay has produced multiple assay endpoints where this one serves a reporter gene function. To generalize the intended target to other relatable targets, this assay endpoint is annotated to the dna binding intended target family, where the subfamily is NF-kappa B.
Human liver HepG2 cells are transiently transfected with multiple reporter transcription units (MRTUs) in 6-well plates using FuGene 6 reagent (Roche; 3 ml FuGene/1 mg DNA). The MRTU constructs are regulated by a cis-regulating element (promoter). […] A major difference between the CIS and TRANS system is that in CIS activities of endogenous TFs are measured, whereas the TRANS assay evaluates changes in activities of exogenous, chimeric NR-Gal4 proteins. […] At the end of 24 hour incubation, total RNA was isolated using TriZol reagent (Invitrogen). The isolated RNA is then reverse-transcribed using oligo(dT) primer and Mo-MLV reverse transcriptase (Invitrogen) with DNAse I (Ambion) treatment for 30 min. The one-tenth of the produced cDNA was amplified by PCR using Taq DNA polymerase (Invitrogen) and two reporter sequence-specific primers. The PCR products were fluorescently labeled by primer extension with 6-arboxyfluorescein (6-FAM) 5'-labeled reporter sequence-specific primer (2 min at 95 C, 20 s at 68 C and 10 min at 72 C) and these products were digested with 5U of HpaI (New England Biolabs) for 2h at 37 C. The fragments were purified using Qiaquick PCR columns (Qiagen), analyzed on an ABI 3130xL genetic analyzer (Applied Biosystems) with peak positions identified by using a set of X-rhodamine (ROX)-labeled MapMarker1000 molecular weight standards (BioVentures). The raw capillary electrophoresis data was processed using Attagraph software (Attagene).

| Compound | AC50 | outcome |
| --- | --- | --- |
| Cc1cccc([N+](=O)[O-])c1[N+](=O)[O-] | active: 118 µM |  |
| CC(C)OP(C)(=O)OC(C)C |  | inactive |
| CC(C)N(CCO)C(C)C |  | inactive |
| O=[N+]([O-])OCC(CO[N+](=O)[O-])(CO[N+](=O)[O-])CO[N+](=O)[O-] |  | inactive |
| COc1ccc([N+](=O)[O-])cc1[N+](=O)[O-] |  | inactive |
| N#CBr |  | inactive |
| Cc1ccc([N+](=O)[O-])c([N+](=O)[O-])c1 |  | inactive |
| COP(C)(=O)OC |  | inactive |
| Cc1c([N+](=O)[O-])cccc1[N+](=O)[O-] |  | inactive |
| Cc1ccc([N+](=O)[O-])cc1[N+](=O)[O-] |  | inactive |
| O=[N+]([O-])c1cccc([N+](=O)[O-])c1 |  | inactive |
| CN(C)CCCl |  | inactive |
